For data set [1] the following is noted: 298.15 K; 101.33 kPa; Liquid.
Data set [2] can be described thus: excess molar enthalpy (molar enthalpy of mixing); xn = mol fraction of the nth substance listed. Particulars: 298.15 K, 101 kPa, Liquid, Flow calorimetry.

Values joined by “and” are separate entries in the source; they are usually repeats but may differ in a detail not shown here. Equal entries are not always repeated. ± gives the expanded uncertainty stated by the source.

For `CCCCOCCCC` [dibutyl ether], the mass density (in general, mass per unit of volume) in data set [1] came out at 763.806 ± 0.33 kg/m3.
On to `CCCCOCCCC` [dibutyl ether] + C1CCOC1, for which the excess molar enthalpy in data set [2] (x1 = 0.05) was found to be 0.0188 ± 0.000478 kcal/mol; in data set [2] (x1 = 0.0998), 0.0343 ± 0.000598 kcal/mol; in data set [2] (x1 = 0.1502), 0.0474 ± 0.000741 kcal/mol; in data set [2] (x1 = 0.2) it was 0.0582 ± 0.000837 kcal/mol; in data set [2] (x1 = 0.25), 0.0666 ± 0.000932 kcal/mol; in data set [2] (x1 = 0.3) it was 0.0731 ± 0.001 kcal/mol. Further, the excess molar enthalpy is 0.0777 ± 0.00105 kcal/mol in data set [2] (x1 = 0.3499); 0.0805 ± 0.0011 kcal/mol in data set [2] (x1 = 0.4); 0.0816 ± 0.0011 kcal/mol in data set [2] (x1 = 0.4502); 0.081 kcal/mol and 0.0811 kcal/mol in data set [2] (x1 = 0.4998); 0.0793 ± 0.00108 kcal/mol in data set [2] (x1 = 0.5498); 0.0761 ± 0.00105 kcal/mol in data set [2] (x1 = 0.6002). Also, the excess molar enthalpy in data set [2] (x1 = 0.6499) turned out to be 0.0712 ± 0.00098 kcal/mol; in data set [2] (x1 = 0.7), 0.0652 ± 0.000908 kcal/mol; in data set [2] (x1 = 0.7501), 0.0575 ± 0.000837 kcal/mol; in data set [2] (x1 = 0.8) it was 0.0488 ± 0.000741 kcal/mol; in data set [2] (x1 = 0.85) it was 0.0388 ± 0.000621 kcal/mol; in data set [2] (x1 = 0.9), 0.0268 ± 0.000502 kcal/mol. Moreover, the excess molar enthalpy in data set [2] (x1 = 0.95) worked out at 0.0142 ± 0.000382 kcal/mol.
